In article PMC7956722, “Expression of Luteinizing Hormone-Releasing Hormone (LHRH) and Type-I LHRH Receptor in Transitional Cell Carcinoma Type of Human Bladder Cancer” (Molecules, 2021):

Target: T1, LHRH receptors (human bladder cancer specimens, crude membranes) (Homo sapiens, UniProt P30968)
T1 construct: membrane homogenates of bladder cancer specimens containing 60–150 µg protein were incubated in duplicate; from tissue; host or cells: surgically resected human bladder cancer (transitional cell carcinoma) tissue, crude membrane fractions
T1 sequence (P30968 1-328): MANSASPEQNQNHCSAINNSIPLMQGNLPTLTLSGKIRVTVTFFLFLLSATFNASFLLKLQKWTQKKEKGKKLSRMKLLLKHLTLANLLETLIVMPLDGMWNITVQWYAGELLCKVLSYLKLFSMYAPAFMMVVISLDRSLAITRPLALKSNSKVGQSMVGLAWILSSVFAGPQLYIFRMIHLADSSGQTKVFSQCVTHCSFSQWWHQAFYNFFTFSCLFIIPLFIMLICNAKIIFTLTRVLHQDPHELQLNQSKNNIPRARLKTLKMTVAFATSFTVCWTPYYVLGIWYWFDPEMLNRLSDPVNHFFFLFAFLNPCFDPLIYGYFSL
Assay: Radioligand binding / Scatchard analysis of [125I][D-Trp6]LHRH on membranes of human bladder cancer specimens
Conditions: 12 human bladder cancer specimens examined
Method: Analysis of the typical displacement of radiolabeled [D-Trp^6] […] Biochemical parameters essential to establish the identity of specific binding sites were also determined.
The assay was performed as described earlier. […] At the end of the incubation, 125 µL aliquots of suspension were transferred onto the top of 1 mL of ice-cold binding buffer containing 1.5% BSA in microcentrifuge tubes. The tubes were centrifuged at 12,000× g for 3 min at 4 °C. Supernatants were aspirated and the pellet was counted in a gamma counter. Protein concentration was determined by the method of Bradford using a Bio-Rad protein assay kit (Bio-Rad Laboratories, Hercules, CA, USA). The final binding affinities were expressed as IC50 values and were calculated by using the LIGAND-PC computerized curve-fitting program of Munson and Rodbard.

pGlu-His-Trp-Ser-Tyr-Gly-Leu-Arg-Pro-Gly-NH2 [LHRH, decapeptide, pivotal hormone of the hypothalamo-pituitary gonadal axis]
binding sites found by ligand competition assay: a single class of high affinity binding sites
